Assay results taken from paper PMC5382891 (Scientific Reports, 2017).

Chains of the proteins cited; added tags and fusions are not shown.
UniProt P41146, whole entry: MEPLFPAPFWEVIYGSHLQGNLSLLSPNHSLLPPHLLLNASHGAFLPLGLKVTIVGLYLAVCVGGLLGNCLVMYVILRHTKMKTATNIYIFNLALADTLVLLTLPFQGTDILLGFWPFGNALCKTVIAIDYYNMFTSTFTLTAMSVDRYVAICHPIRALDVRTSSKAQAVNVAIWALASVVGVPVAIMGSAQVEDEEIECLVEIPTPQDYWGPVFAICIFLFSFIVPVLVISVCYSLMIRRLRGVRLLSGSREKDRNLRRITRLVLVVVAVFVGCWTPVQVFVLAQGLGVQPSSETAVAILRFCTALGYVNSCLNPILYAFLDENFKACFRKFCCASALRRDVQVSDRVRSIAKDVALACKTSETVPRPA

Target: human recombinant NOP receptor (Homo sapiens, UniProt P41146)
Conditions: for Emax ± SEM: Table 3, mean ± SEM of at least 4 separate experiments in duplicate

SMILES | Emax ± SEM | pEC50(CL95%) | less potent than Ro 65-6570 (calcium assay)
O=C(CCCCCCN1CN(c2ccccc2)C2(CCN(C3Cc4cccc5cccc3c45)CC2)C1=O)NCCCCCCNC(=O)CCCCCCN1CN(c2ccccc2)C2(CCN(C3Cc4cccc5cccc3c45)CC2)C1=O (centres unmarked) | 132 ± 14 percent fluorescence intensity over the basal values | – | –
O=C(CCCCCCN1CN(c2ccccc2)C2(CCN(C3Cc4cccc5cccc3c45)CC2)C1=O)NCCCNC(=O)CCCCCCN1CN(c2ccccc2)C2(CCN(C3Cc4cccc5cccc3c45)CC2)C1=O (centres unmarked) | 125 ± 6 percent fluorescence intensity over the basal values | – | –
O=C(CCCCCCN1CN(c2ccccc2)C2(CCN(C3Cc4cccc5cccc3c45)CC2)C1=O)NCCNC(=O)CCCCCCN1CN(c2ccccc2)C2(CCN(C3Cc4cccc5cccc3c45)CC2)C1=O (centres unmarked) | 131 ± 12 percent fluorescence intensity over the basal values | 7.57 (7.23–7.91) | –
O=C(CCCCCCN1CN(c2ccccc2)C2(CCN(C3Cc4cccc5cccc3c45)CC2)C1=O)NCCCCCCCCNC(=O)CCCCCCN1CN(c2ccccc2)C2(CCN(C3Cc4cccc5cccc3c45)CC2)C1=O (centres unmarked) | 131 ± 21 percent fluorescence intensity over the basal values | – | –
O=C(CCCCCCN1CN(c2ccccc2)C2(CCN(C3Cc4cccc5cccc3c45)CC2)C1=O)NCCCCCCCNC(=O)CCCCCCN1CN(c2ccccc2)C2(CCN(C3Cc4cccc5cccc3c45)CC2)C1=O (centres unmarked) | 150 ± 35 percent fluorescence intensity over the basal values | – | 23 fold
O=C(CCCCCCN1CN(c2ccccc2)C2(CCN(C3Cc4cccc5cccc3c45)CC2)C1=O)NCCCCNC(=O)CCCCCCN1CN(c2ccccc2)C2(CCN(C3Cc4cccc5cccc3c45)CC2)C1=O (centres unmarked) | 135 ± 20 percent fluorescence intensity over the basal values | – | –
